# Antibody variant affinities, Ab-14 heavy chain, assay B

Reference: Li et al. 2023, doi:10.1038/s41467-023-39022-2. File: FLAb, binding data.

All variants were tested on one target, the spike HR2 peptide PDVDLGDISGINAS (SARS-CoV-2).

Ab-14 is the parent antibody, in scFv form: VH, then a (GGGGS)3 linker, then VL. The light chain is unchanged in all variants.
VH: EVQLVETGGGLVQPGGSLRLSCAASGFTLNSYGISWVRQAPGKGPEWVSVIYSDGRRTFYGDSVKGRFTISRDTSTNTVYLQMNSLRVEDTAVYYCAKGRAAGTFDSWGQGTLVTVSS
VL: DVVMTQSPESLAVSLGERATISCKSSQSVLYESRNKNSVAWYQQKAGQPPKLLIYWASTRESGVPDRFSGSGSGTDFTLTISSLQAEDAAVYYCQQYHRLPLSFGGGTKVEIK

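These sequences belong to a second round, designed from the earlier measurements on random variants of the parent. Group labels follow the data file (Ctrl: baseline library sampled from a position-specific scoring matrix, with some repeated check sequences; Rand: our label for a block that the file lists under HC and that is probably the random mutants of the ten best first-round binders; GP: Gaussian process model; GPLM: also part of the Gaussian process libraries; HC: hill climbing; Gen: genetic algorithm; Gibbs: Gibbs sampling; a sequence that several methods proposed may carry one label only). Affinity was read by AlphaSeq, a pooled yeast mating assay with surface-displayed partners. Mating (16 h, 30 °C) was followed by selection of diploids and sequencing of their barcodes. Each replicate has its own calibration line, from reference interactions of the BCL2 family. Mating was done six times.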

The parent's heavy chain CDRs are GFTLNSYGIS, VIYSDGRRTFYGDSVK, GRAAGTFDS; each variant's own CDRs replace them letter for letter. Variants here have at most six changes. Numbers give log10(Kd / nM), so 0 is 1 nM and 3 is 1 µM. Smaller is tighter. Replicates are averaged; those with no signal do not enter the mean. Where no diploid with the target was found in any replicate, the entry reads "nd": below detection, most likely a poor binder, though not proof of it. The authors averaged sequences with at least three values out of six and counted those with two or fewer as poor binders.

| CDR-H1 | CDR-H2 | CDR-H3 | group | mean log10 Kd (nM) | detected | empty controls |
|---|---|---|---|---|---|---|
| GFTLDSYGIS | VIYSDGRRTFYGDSVK | GWVAGTFDS | GP_Gibbs | 1.53 | 5/6 | 0/18 |
| GFSLNSYGIS | VIYADGRRTFYGDSVK | GTAAGTFDK | GP_Gibbs | -0.36 | 6/6 | 1/18 |
| GLTLNEYGIS | VIYSDGRRTFYQDSVK | GRAAGTFDS | Ctrl | 2.06 | 5/6 | 1/18 |
| GFNLNSYGIS | VIYSDGRRTFYMDSVK | GQLAGTFDS | GP_HC | 0.86 | 4/6 | 0/18 |
| GFDLNAYGIS | VIYSDGRRTFYGDSVK | GKTAGTFDS | GPLM_Gibbs | 0.72 | 6/6 | 0/18 |
| GFSLNSYGIS | VIYSDGRRTFYSDQVK | GEAAGTFDS | GPLM_Gen | 0.67 | 6/6 | 1/18 |
| GFSLNSYGIS | VIYSDGRRTFYKDSVK | GQTAGTFDA | GP_Gen | 0.14 | 6/6 | 0/18 |
| GFNLNSYGIS | VIYSDGRRTFYADSVK | GQAAGTFDK | GPLM_Gen | 0.62 | 4/6 | 2/18 |
| GFGLNSYGIS | VIYSDGRRTFYGDSVK | GHVAGTFDS | GP_Gibbs | 0.92 | 6/6 | 1/18 |
| GFTLNSYGIS | VIYADGRRTFNGDSVK | GRAAATFDS | Ctrl | nd | 0/6 | 0/18 |
| GFTLNSYGIS | VIYADGRRTFYGDSVK | GTAAGTFKM | GP_HC | nd | 0/6 | 0/18 |
| GKTLNSYGIS | VIYADGRRTFYGDSVK | GRTAGTFDS | GPLM_Gen | 1.46 | 1/6 | 0/18 |
| GFDLNSYGIS | VIYSDGRRTFYTDSVK | GQEAGTFDS | GP_Gen | 0.03 | 6/6 | 0/18 |
| GFTLNSYGIS | VIYRDGRRTHYGDSVK | GRAAGTDDS | Ctrl | nd | 0/6 | 0/18 |
| GFTLNSYGIS | VIYSDGYRTFYADSVR | GYAAGTFDS | Ctrl | 1.57 | 1/6 | 0/18 |
| GITLNSYGSS | VIYSDGRRTFYGDSVK | DAAPGTFDS | Ctrl | nd | 0/6 | 0/18 |
| GFPLNSYGIS | VIYADGRRTFYGDSVK | GRAAGTNKS | Rand | 1.15 | 6/6 | 1/18 |
| GFDLNSYGIS | VIYSDGRRTFYQDSVK | GRAAVTFDS | GP_HC | nd | 0/6 | 0/18 |
| GFTLNEYGIS | VIYSDGRRTFYGDSVK | GLAAFTFDS | Ctrl | nd | 0/6 | 0/18 |
| GFTLNMYGIS | VIYADGLRTFYGDSVK | GLAAGTFDS | Ctrl | 1.78 | 5/6 | 0/18 |
| GFNLNSYGGS | VIYSDGRRTFYGDSVK | GREAGTGDS | Ctrl | nd | 0/6 | 0/18 |
| GFTLNSYGIS | VIYSDGRRTAYGDSVK | GMAAGTFIS | Ctrl | nd | 0/6 | 0/18 |
| GFTLNSYGIS | VIYSDGRRTFYGDSVK | GVSAGTFDL | Ctrl | nd | 0/6 | 0/18 |
| GFVLTSYGIS | VIYADGRRTFYGDSVK | GSQAGQFDS | Ctrl | nd | 0/6 | 0/18 |
| GFDLNSYGIS | VIYSDGRRTFYGDSVK | GRTAGAFCS | GP_HC | 1.35 | 5/6 | 0/18 |
| GFSLNEYGIS | VIYSDGRRTFYGDSVK | GRTAGTFES | GPLM_Gen | -0.09 | 6/6 | 0/18 |
| GNTLNEYGIS | VIYSDGRRTFYHDSVK | GRTAGTFDS | GP_HC | 0.23 | 6/6 | 0/18 |
| GFTLNSYGIS | VIYSDGKRTFYGDSVK | GRVAGTFDS | GPLM_Gen | 1.33 | 6/6 | 1/18 |
| GFDLNSYGIS | VIYSDGMRTFYGDWVK | GRTAGTFDS | GP_Gibbs | 1.78 | 2/6 | 0/18 |
| GFSLNSYGIS | VIYSDGRRTFYVDSVK | GRNAGTFDS | GPLM_Gen | 0.83 | 6/6 | 0/18 |
| GFNLNSYGIS | VIYSDGRRTFYVDSVK | GSAAGTFDS | GPLM_Gibbs | 1.22 | 6/6 | 0/18 |
| GFTLDSYGIS | VIYSDGRRTPYGDSVK | GRAAGTALS | Rand | nd | 0/6 | 1/18 |
| GFTLNSYGGS | VIYSDGRRTFYSDSVK | GRAAGTFDS | Ctrl | nd | 0/6 | 0/18 |
| GFTLNSYGIS | VIYSDGERTFYGDSVK | GRTAGTFDK | Ctrl | nd | 0/6 | 0/18 |
| GFTLNSYGIS | VIYSDGRRTFYADSVK | GHVAGTFDS | GPLM_Gen | 0.75 | 6/6 | 0/18 |
| LFTLNSYGIS | VIYSDGRRTFYLDSVK | GRTSGTFSW | Ctrl | nd | 0/6 | 0/18 |
| GFTLNTYGIS | VIYSDGRRTFYGDSVK | GEAAGTFDS | Ctrl | 1.67 | 4/6 | 0/18 |
| GFRLNSYGIS | VIYSDGRRTFYDDSVK | GRLAGTFDS | GP_HC | 1.59 | 3/6 | 0/18 |
| TFNLNDYGIS | VIYSDGERTFYGDSVK | GRAAGTFDS | Ctrl | nd | 0/6 | 0/18 |
| GFQLNEYGIS | VIYSDGRRTFYGDSVK | GWTAGTFDS | GP_Gen | 0.86 | 4/6 | 0/18 |
| GFQLNSYGIS | VIYSDGRRTFYVDSVK | GRLAGTFDS | GP_Gibbs | 1.84 | 1/6 | 0/18 |
| GFDLNSYGIS | VIYSDGRRTFYQDKVK | GQTAGTFDD | GP_Gibbs | -0.18 | 6/6 | 0/18 |
| GFTLNSYGVS | VIYSDGRRTFYGDSVK | GRACFGFDS | Ctrl | 1.33 | 4/6 | 0/18 |
| GFTLNSYGIS | VIYSDGKRTFYADAVK | GRTAGTFWS | GP_Gibbs | nd | 0/6 | 0/18 |
| GFSLNEYGIS | VIYADGRRTFYGDSVK | GRTAGTFDS | GPLM_Gibbs | -0.02 | 6/6 | 0/18 |
| GFTINSYGIS | VIYSDGRRTFYLDSVK | GRAAGTFDS | Ctrl | 2.24 | 2/6 | 0/18 |
| GFDLNSYGIS | VIYSDGRRTFYKDSVK | GQAAGTFDD | GP_Gibbs | 0.81 | 6/6 | 1/18 |
| GFDLNSYGIS | VIYSDGRRTFYCDQVK | GRTAGTFDS | GP_Gen | nd | 0/6 | 0/18 |
| GFGLNEYGIS | VIYSDGRRTFYHDSVK | GRTAGTFDT | GP_Gen | -0.65 | 6/6 | 0/18 |
| GFTLNDYGIS | VIYSDGRRTFYGDSVK | GRAAGTFDM | Ctrl | 0.97 | 6/6 | 0/18 |
| GFTLNSYGIS | VIYSDGRRTFYQDSVK | GRAAGTFCS | Ctrl | nd | 0/6 | 0/18 |
| GFTLNDYGIS | VIYSDGRRTQYINSVK | GRYAGTFDS | Rand | 1.48 | 1/6 | 0/18 |
| GFTLNEYGIS | VIYSDGRRTFYGDSVK | GKAAGTFIS | GP_HC | nd | 0/6 | 0/18 |
| GFTLNSYGIS | VIYSDGRRTFYDDSVK | GQLAGTFES | GPLM_HC | nd | 0/6 | 0/18 |
| GFQLNEYGIS | VIYSDGRRTMYGDSVK | GRQAGTFDS | GP_Gibbs | 0.59 | 6/6 | 0/18 |

The 8 strongest on average among those seen in every replicate, once more:

CDR-H1	CDR-H2	CDR-H3	group	mean log10 Kd (nM)	detected	empty controls
GFGLNEYGIS	VIYSDGRRTFYHDSVK	GRTAGTFDT	GP_Gen	-0.65	6/6	0/18
GFSLNSYGIS	VIYADGRRTFYGDSVK	GTAAGTFDK	GP_Gibbs	-0.36	6/6	1/18
GFDLNSYGIS	VIYSDGRRTFYQDKVK	GQTAGTFDD	GP_Gibbs	-0.18	6/6	0/18
GFSLNEYGIS	VIYSDGRRTFYGDSVK	GRTAGTFES	GPLM_Gen	-0.09	6/6	0/18
GFSLNEYGIS	VIYADGRRTFYGDSVK	GRTAGTFDS	GPLM_Gibbs	-0.02	6/6	0/18
GFDLNSYGIS	VIYSDGRRTFYTDSVK	GQEAGTFDS	GP_Gen	0.03	6/6	0/18
GFSLNSYGIS	VIYSDGRRTFYKDSVK	GQTAGTFDA	GP_Gen	0.14	6/6	0/18
GNTLNEYGIS	VIYSDGRRTFYHDSVK	GRTAGTFDS	GP_HC	0.23	6/6	0/18

Three control strains display no target. For all heavy chain designs, 1% of the pairings with them gave a signal, with a median of 2.08 and one signal in twenty below 0.84, so weak values seen in few replicates may be background. The control count says in how many pairings with the empty strains this scFv gave a signal. The range of this assay differs from that of the first round, and the authors advise against merging the two.